Values quoted from earlier work in US11473070B2, “Increased polypeptide production yields of butyrylcholinesterase polypeptides for therapeutic use” (dated 2022).

Tests used:
[1] = system: human butyrylcholinesterase (BChE), wild type, SEQ ID NO: 10; details: naturally occurring (−)-cocaine, ref. [7]
[2] = system: Fc(M3)-G6S-CocH3, fusion of Fc(M3) (A1V/D142E/L144M) with human BChE mutant A199S/F227A/S287G/A328W/Y332G, SEQ ID NO: 16-SEQ ID NO: 37-SEQ ID NO: 13; details: reported in ref. [32]

In the case of `COC(=O)[C@H]1[C@@H](OC(=O)c2ccccc2)C[C@@H]2CC[C@H]1N2C`, the kcat [1] is given as 0.0683 s⁻¹ and the kcat [2] is given as 94.9 ± 3.97 s⁻¹.
